Values of other authors as cited in patent US20150246056A1, “METHODS FOR TREATING OR PREVENTING SYMPTOMS OF HORMONAL VARIATIONS” (priority 2006, published 2015).

Tested on: muscarinic cholinergic receptors
Conditions: tested at concentrations >10^−5 M; cited from earlier work

Cc1nc2n(c(=O)c1CCN1CCC(c3noc4cc(F)ccc34)CC1)CCCC2 [risperidone]
affinity for muscarinic cholinergic receptors: no affinity
